The target of this assay is 5-hydroxytryptamine receptor 1A (Homo sapiens, UniProt P08908). The assay can be described thus: Binding affinity to 5HT1A receptor.

By UniProt entry, the sequences of proteins in these tests, tags left out.
UniProt P08908, whole entry: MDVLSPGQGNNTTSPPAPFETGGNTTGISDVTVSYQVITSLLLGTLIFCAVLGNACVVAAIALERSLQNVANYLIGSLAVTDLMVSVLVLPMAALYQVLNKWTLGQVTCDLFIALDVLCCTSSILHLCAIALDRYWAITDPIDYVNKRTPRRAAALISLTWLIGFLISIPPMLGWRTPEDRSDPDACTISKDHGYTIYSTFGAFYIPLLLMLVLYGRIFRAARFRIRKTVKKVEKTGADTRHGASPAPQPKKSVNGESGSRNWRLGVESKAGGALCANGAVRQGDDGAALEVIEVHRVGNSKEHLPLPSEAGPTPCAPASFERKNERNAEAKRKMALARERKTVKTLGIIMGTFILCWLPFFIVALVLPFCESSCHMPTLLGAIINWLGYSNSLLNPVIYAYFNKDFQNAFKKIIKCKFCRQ

SMILES strings stand for the structures.

A word on the Kd: it is the constant that tells how readily two partners part at equilibrium. For `CNS(=O)(=O)Cc1ccc2[nH]cc(CCN(C)C)c2c1`, the Kd is 398 nM.

In turn, `COC(=O)[C@H]1[C@H]2C[C@H]3c4[nH]c5ccccc5c4CCN3C[C@H]2CC[C@@H]1O` [RAUWOLSCINE] showed a Kd of 39.8 nM.

(Values after ChEMBL document CHEMBL1155229, “Physical binding pocket induction for affinity prediction” (J Med Chem, 2009).)
